Values of other authors as cited in patent US9428458B2, “Substituted pyridoxine-lactam carboxylate-salts” (ALCOBRA LTD., priority 2008, dated 2016).

By UniProt entry, the sequences of proteins in these tests, tags left out.
UniProt P05181, whole entry, species assumed: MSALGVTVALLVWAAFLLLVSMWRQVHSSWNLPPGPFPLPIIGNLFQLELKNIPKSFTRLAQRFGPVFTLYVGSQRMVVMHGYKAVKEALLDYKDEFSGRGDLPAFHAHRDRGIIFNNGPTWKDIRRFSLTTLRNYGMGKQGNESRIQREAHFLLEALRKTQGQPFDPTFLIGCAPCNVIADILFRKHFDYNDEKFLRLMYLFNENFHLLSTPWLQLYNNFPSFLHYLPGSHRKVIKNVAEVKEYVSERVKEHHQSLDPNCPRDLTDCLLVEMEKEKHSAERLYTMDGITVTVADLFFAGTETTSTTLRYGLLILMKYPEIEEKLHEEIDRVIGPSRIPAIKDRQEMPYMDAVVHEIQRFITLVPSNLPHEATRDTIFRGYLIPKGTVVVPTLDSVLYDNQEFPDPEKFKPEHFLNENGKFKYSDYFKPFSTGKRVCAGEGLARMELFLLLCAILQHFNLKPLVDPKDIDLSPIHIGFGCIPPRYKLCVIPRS

Target: cytochrome P450 2E1 (Homo sapiens, UniProt P05181)

In the case of “pyridoxine L-2-pyrrolidone-5-carboxylate [metadoxine]”, the “inhibition of expression and activation of alcohol-induced cytochrome P450 2E1” value is given as “does not inhibit”.
